Values quoted from earlier work, collected in patent US20050244328A1 (priority 2002, published 2005).

Details: chlorine dioxide gas; cited from earlier work

Chlorine dioxide
pressure above which the gas is unstable and explosive: over 40 kPA
